# Data reported in publication PMC5843810, “18th European Symposium on Radiopharmacy and Radiopharmaceuticals” (EJNMMI Radiopharmacy and Chemistry, 2016).
# System: tumor
# Settings: organ distribution in vivo
substance,measurement,value
PSMA-1007,tumor uptake,8.0±2.4 %ID/g
